# Data published in patent publication US9867841B2, “Compounds, compositions and methods using E-selectin antagonists for mobilization of hematopoietic cells” (GLYCOMIMETICS, INC., priority 2012, dated 2018).
# What was measured:
# neutrophils in the blood = assay: Mobilization of neutrophils in mice (Example 4, FIG. 4); conditions: single intravenous dose of 20, 40, or 60 mg/kg, blood at 2, 3, and 6 hours, tested form: Na salt
# Description: FIG. 4 illustrates mobilization of neutrophils by an exemplary E-selectin antagonist, Compound 25. Groups of animals received Compound 25 at doses of 20 mg/kg (Cmpd 25 (20)), 40 mg/kg (Cmpd 25 (40)), or 60 mg/kg (Cmpd 25 (40)). Another group of animals received 3 mg/kg of plerixafor (AMD-3100). Neutrophils were enumerated (K/μl) in blood samples taken at 2, 3, and 6 hours after dosing.
# This example describes hematopoietic stem cell mobilization by an exemplary E-selectin antagonist. Groups of mice (16 mice per group) received a single dose of 20, 40, or 60 mg/kg of Compound 25 or 3 mg/kg of plerixafor (also called AMD-3100), which is a CXCR4 antagonist. These compounds were administered once intravenously. A control group of 8 animals received vehicle only. Blood samples were taken at 2, 3, and 6 hours after dosing and analyzed for complete blood count (CBC). Neutrophils were enumerated (K/μl) (i.e., 1000's per microliter) in each sample at each time point.
# [1] = system: WBC, lymphocytes, monocytes, eosinophils, and neutrophils in circulation; assay: Mobilization of blood cells in CD-1 mice (Example 5, FIG. 5); assay type: in vivo; conditions: tested form: Na salt
# Tolerability in mice = assay type: in vivo; conditions: tested form: Na salt
structure (smiles),measurement,setting,value
CCC1CC(C(=O)NCCNC(=O)CCOCCOCCOCCOCCOCCOCCOCCOCCOCCOCCOCCOC)CC(OC2OC(CO)C(O)C(OC(CC3CCCCC3)C(=O)O)C2NC(C)=O)C1OC1OC(C)C(O)C(O)C1O (stereo not shown),number of neutrophils in the blood (mobilization),neutrophils in the blood,increased number of the neutrophils in the blood
same,time of peak mobilization,"[1]; most cell types, 20, 40 or 60 mg/kg intravenous",3 h
same,"level of total WBC, lymphocytes, monocytes, eosinophils, and neutrophils in circulation","[1]; single intravenous dose of 20, 40 or 60 mg/kg (all dose levels), blood at 2, 3, and 6 hours","increased the level of total WBC, lymphocytes, monocytes, eosinophils, and neutrophils in circulation"
same,tolerated dose,Tolerability in mice,1000 mg/kg
